Earlier results as cited in patent US20220143023A1, “COMPOUNDS WITH ANTI-TUMOR ACTIVITY AGAINST CANCER CELLS BEARING EGFR OR HER2 EXON 20 INSERTIONS” (Board of Regents, The University of Texas System, priority 2019, published 2022).

Tested on: NSCLC patients with classical sensitizing mutations (L858R and exon 19 deletions)
Conditions: Maemondo et al., 2010; cited from earlier work

COc1cc2ncnc(Nc3ccc(F)c(Cl)c3)c2cc1OCCCN1CCOCC1 [Gefitinib]
patients experiencing objective responses (OR): approximately 70%
